# Assay outcomes: PubChem BioAssay, Broad Institute
# PGC1a acetyl inh: modulators of PGC1a acetylation; AID 651687; inhibition, % at 15.6 µM; 0.17% of 350,000 active; U2OS PGC1a acetylation, AlphaScreen anti-acetyl-lysine; with virally co-expressed GCN5 acetyltransferase;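 active = every replicate shows inhibition of at least 40%; inconclusive = mean inhibition at least 40% but some replicate below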;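 also: 0% = neutral control wells and 100% = positive control wells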
# Yeast UUG start: alters start codon recognition fidelity in yeast. S. cerevisiae UUG-firefly luciferase reporter, luminescence/redox ratio. 350,000 tested, 0.13% active. activity score, % at 18.7 µM. AID 602363;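 active means replicate mean at a twofold rise or more, about +100% in these data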;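 further: firefly luciferase made from a UUG start codon reports start codon fidelity; reporter light over untreated wells divided by growth signal over untreated wells; some hits fall short of that in this replicate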
# esBAF inh: inhibitors of esBAF chromatin remodeling in mouse ES cells | Bmi1-luciferase knock-in reporter, 24 h; 100% = twice the neutral-well signal | reporter increase, % at 12.5 µM | 2% of 350,000 active; in the data active = activation above about 40%; inconclusive = no clear call, values can overlap the other calls;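 also: 0% = median of the plate's neutral control wells and 100% = double that signal; a rise in the Bmi1 reporter signal indicates esBAF inhibition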
# C2C12 statin: protects C2C12 myotubes from simvastatin toxicity; AID 602340; rescue of ATP level, % at 7.49 µM; 0.78% of 330,000 active; ATP luminescence, 48 h; scaled: DMSO 0, geranylgeraniol control 100;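 active = mean ATP rescue above about 67%, or every replicate alone reaching that limit, limit read from the data, passing the limit was not always enough; inconclusive = no clear call, values can overlap the other calls; inactive = mean under the limit and some replicate under it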;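 also: myotubes were challenged with 10 µM simvastatin during compound exposure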
# PglD DTNB: PglD (C. jejuni) enzyme inhibition; purified PglD enzyme, DTNB colorimetric CoA detection; inhibition, % at 12.5 µM; 0.098% of 360,000 active; in the data active = inhibition above about 16%, passing the limit was not always enough; inconclusive = no clear call, values can overlap the other calls
# E-sel inducer: E-selectin induction on HUVECs; HUVEC E-selectin immunofluorescence imaging; normalized: neutral wells 0, TNF-alpha wells 100; 0.37% of 260,000 active; activation, % at 7.58 µM; P16581;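 active = mean E-selectin-positive cell signal at least 10% of the positive control, reached in at least 60% of replicates, without over 20% cell loss; inconclusive = no rule given, readout overlaps actives, possibly toxicity-flagged; inactive = the rest, including those meeting only one limit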
#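 Read-out: % PE-positive cells | Test system: HUVEC | Doses: One compound dose added by pin transfer | Buffer or medium: EGM-2 over gelatin coat | Signal: Immunofluorescence imaging | Benchmarks: TNF-alpha, DMSO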
# The depositor's hits bear a star; ? = inconclusive; / = no result. This is a sample that favours compounds with a hit; in the whole collection about 2.8% have one here.
SMILES,PGC1a acetyl inh,Yeast UUG start,esBAF inh,C2C12 statin,PglD DTNB,E-sel inducer
S=C(NCCc1cccc(Cl)c1)NC1CCCCC1,-1.1,-36.1,65.8*,-9.8,-1.0,0.0
Cc1cc(C(=O)COC(=O)c2ccc(Br)o2)c(C)n1C,-3.0,2.4,44.5*,-4.1,-0.4,2.8
O=C(CCl)N=c1sccn1Cc1ccccc1Cl,52.3*,-32.4,/,/,-5.6,/
CCC(=O)OCC(=O)N=c1sccn1Cc1ccccc1Cl,3.7,-2.0,5.6,4.1,-2.8,0.2
CCC(=O)OCC(=O)N=c1sccn1Cc1ccc(C)cc1,/,-29.1,0.7,-1.2,3.4,0.7
O=C(CCl)N=c1sccn1Cc1ccc(Cl)cc1Cl,65.8*,/,/,/,/,/
CN(C)CC#Cc1ccc([C@@H]2[C@H]3CN(C(=O)C4CC4)CCCCN3[C@H]2CO)cc1,3.7,0.8,/,/,0.7,/
COc1ccc(NC(=O)C#Cc2ccccc2)cc1,41.1,-4.9,?,14.0,5.9,/
O=C(C#Cc1ccccc1)Nc1cccc(F)c1,/,-7.6,-76.6,159.2*,2.3,-0.2
O=C(C#Cc1ccccc1)Nc1ccc(F)cc1,14.9,-8.0,49.3*,6.6,-6.7,/
CO[C@H]1CN(C)C(=O)c2cc(NC(C)=O)ccc2OC[C@H](C)N(C(=O)c2ccc(F)cc2)C[C@H]1C,-1.5,/,-1.0,-10.4,1.6,-0.1
O=C(Cn1cnc2ccccc2c1=O)c1ccccc1,1.0,-11.5,29.3,7.3,-1.1,/
Cc1ccc(C(=O)Cn2cnc3ccccc3c2=O)cc1,-1.0,7.6,56.0*,8.9,0.3,/
C[C@@H]1CN([C@H](C)CO)C(=O)c2ccccc2-c2ccccc2CO[C@@H]1CN(C)S(=O)(=O)c1ccccc1C#N,2.0,/,-0.8,-2.6,-0.7,-1.0
CC(=O)c1sc(NC(=O)c2ccc(Cl)cc2)nc1C,1.3,/,50.8*,-6.9,/,-2.5
CC(=O)Nc1nc(C)c(C(C)=O)s1,4.6,-25.5,1.7,5.2,-3.4,/
CC(=O)c1sc(NCc2ccccc2)nc1C,-1.9,-17.8,21.5,5.5,-1.5,/
Cn1sc(NC(=O)c2ccc(Cl)cc2)nc1=O,/,-0.3,46.2*,-0.5,-1.3,-2.7
CC(=O)c1sc(NCc2ccc(C)cc2)nc1C,9.2,-22.1,52.6*,-0.9,0.0,-0.1
CC(=O)c1sc(NC(=O)c2ccccc2C)nc1C,9.0,-4.3,76.2*,-18.9,-3.7,/
COc1ccccc1CNC(=O)C[C@H]1CC[C@H](NC(=O)CC2CC2)[C@H](CO)O1,1.5,-10.3,3.9,-1.5,-1.8,-0.2
COc1cccc(CN2CC3(CN(C)C3)c3c(n(C)c4cc(OC)ccc34)[C@@H]2CO)c1,0.3,/,/,/,/,0.0
CCCNC(=O)C[C@@H]1C[C@@H]2c3cc(NC(=O)NC4CCCCC4)ccc3O[C@@H]2[C@@H](CO)O1,3.5,/,-3.8,-6.1,-0.7,-0.3
COc1ccc2c3c(n(C)c2c1)[C@@H](CO)N(C(=O)Nc1ccccc1F)CC31CCN(C(C)=O)CC1,/,/,/,/,/,-0.3
O=S(=O)(N[C@H]1CC[C@H](CCn2cc(C3CC3)nn2)O[C@@H]1CO)c1ccc(Cl)cc1,-1.0,-8.3,-0.6,3.4,-6.3,-0.4

# 3 entries from above, sorted by the value under PglD DTNB, highest first:
canonical_smiles,PglD DTNB
O=C(C#Cc1ccccc1)Nc1cccc(F)c1,2.3
C[C@@H]1CN([C@H](C)CO)C(=O)c2ccccc2-c2ccccc2CO[C@@H]1CN(C)S(=O)(=O)c1ccccc1C#N,-0.7
O=C(Cn1cnc2ccccc2c1=O)c1ccccc1,-1.1

# Other structures:
SMILES,PGC1a acetyl inh,Yeast UUG start,esBAF inh,C2C12 statin,PglD DTNB,E-sel inducer
COc1ccc2c(c1)c(C(=O)OCCN(C)C)c(C)n2C,8.5,-17.1,-2.5,104.6*,2.7,/
COCCOC(=O)c1c(C)n(C)c2ccc(OC(=O)c3c(OC)cccc3OC)cc12,3.0,-0.6,-4.7,-15.8,-3.8,0.2
C[C@H]1CCCCO[C@H](CN(C)Cc2ccccc2)[C@@H](C)CN([C@@H](C)CO)C(=O)c2cc(NC(=O)Nc3ccc(C(F)(F)F)cc3)ccc2O1,-8.8,13.9,-10.8,/,0.7,0.0
Cc1csc(NC(=O)CSc2nc3[nH]c(=O)cc(O)c3s2)n1,-7.9,2.4,-4.2,174.7*,-0.3,-1.1
CCOC(=O)C1=C(CSc2nc(-c3ccccc3)ccc2C#N)OC(N)=C(C#N)C1c1ccc(OC)cc1 (configuration not stated),-5.0,7.2,54.5*,-2.0,1.7,/
CCOC(=O)C1=C(CSc2nc(CC)c(C)cc2C#N)OC(N)=C(C#N)C1c1ccccc1 (configuration not stated),-7.2,41.9,4.8,-3.2,-2.2,/
CC(C)C(=O)NNC(=O)c1csc(CS(=O)(=O)c2ccc(Cl)cc2)n1,-1.7,/,-6.1,0.9,/,/
CS(=O)(=O)NNC(=O)c1csc(Cc2c(Cl)sc3ccc(Cl)cc23)n1,/,/,/,/,/,63.5*
COc1ccc(C(=O)CCc2ccc(OC)c(OC)c2)cc1,/,/,/,/,/,0.2
COc1ccc(C(=O)Cc2cc(OC)c(OC)cc2[N+](=O)[O-])c(OC)c1,4.6,-18.4,51.5*,-12.5,-3.6,/
COc1ccc(C(=O)Cc2cc3ccccc3oc2=O)cc1,3.5,-6.5,56.0*,-0.7,-5.0,/
COc1ccc(C(=O)Cc2ccc(OC)c(OC)c2)cc1,0.5,-5.1,41.8*,9.1,3.2,/
COc1ccc(CCNC(=O)Cc2cc(OC)c(OC)cc2[N+](=O)[O-])cc1OC,-2.3,-9.4,-5.2,/,-0.1,/
COc1ccc(C(=O)COc2ccc(F)cc2)c(O)c1,-8.4,-12.8,67.8*,-21.9,3.4,1.6
COC(=O)C[C@H]1CC[C@@H]2[C@H](COc3ccc(NC(=O)c4ccc(F)c(F)c4)cc3C(=O)N2C)O1,4.7,10.2,-0.7,-6.5,-0.8,-0.1
COC(=O)[C@@H]1[C@@H](CO)[C@@H]2Cn3c(ccc(-c4ccncc4)c3=O)[C@@H]2N1CC1CCCCC1,-0.7,/,1.7,0.9,-2.7,-0.5
O=C(C[C@H]1C[C@H]2c3cc(NS(=O)(=O)c4ccc(F)cc4)ccc3O[C@H]2[C@@H](CO)O1)N1CCCCC1,-0.4,4.9,-4.6,-0.4,-2.4,0.1
COc1ccc(C(=O)Cc2ccc(F)cc2)c(OC)c1,6.4,-4.6,76.0*,-3.2,-1.1,/
COc1ccc(CN(C)C[C@@H]2Oc3ccc(NC(=O)CCC(F)(F)F)cc3C(=O)N([C@@H](C)CO)C[C@H]2C)cc1,-6.9,2.6,-0.2,2.7,-4.8,/
COc1ccccc1OCc1cc(C(=O)N(C)CCC2CCCCO2)no1 (configuration not stated),/,23.3,76.3*,6.8,0.6,-0.1
COc1cc(C(C)=O)ccc1OCc1cc(C(=O)N(C)CCC2CCCCO2)no1 (configuration not stated),/,-6.7,50.9*,3.3,-3.0,-0.3
CCN(CC1CCCO1)C(=O)c1cc(COc2ccc(OC)cc2Cl)on1 (configuration not stated),5.7,-2.8,18.7,4.6,3.4,/
CN(CCC1CCOCC1)C(=O)c1cc(COc2c(F)cccc2F)on1,2.5,-10.0,12.5,1.6,2.2,/
CCCc1cn(CC[C@@H]2CC[C@H](NS(=O)(=O)c3ccccc3Cl)[C@@H](CO)O2)nn1,7.9,42.6,-1.3,3.1,-4.9,-0.1

# A draw from above in order of length of the SMILES, low to high:
SMILES,PGC1a acetyl inh,Yeast UUG start,esBAF inh,C2C12 statin,PglD DTNB,E-sel inducer
COc1ccc(C(=O)Cc2cc3ccccc3oc2=O)cc1,3.5,-6.5,56.0*,-0.7,-5.0,/
CCN(CC1CCCO1)C(=O)c1cc(COc2ccc(OC)cc2Cl)on1 (configuration not stated),5.7,-2.8,18.7,4.6,3.4,/
CCOC(=O)C1=C(CSc2nc(-c3ccccc3)ccc2C#N)OC(N)=C(C#N)C1c1ccc(OC)cc1 (configuration not stated),-5.0,7.2,54.5*,-2.0,1.7,/
